This is an account of results in patent US20240360177A1, “PEPTIDES WITH ANTIMICROBIAL ACTIVITIES” (priority 2021, published 2024).

Converted amounts (≈) assume the structure as drawn.

Data set [1] is described as follows: Cytotoxicity in HepG2 cells, intracellular ATP assay. The conditions noted are these: human.
The subject of a further data set is human red blood cells. The data set is classed as cell-based. As to conditions: PBS, 37° C., 1 hr. The protocol: Hemolysis is a liability for many other cationic peptides which prevented their utility to treat systemic infections. The hemolytic potential of the peptides was tested using red blood cells collected from fresh human blood after centrifugation at room temperature and washed in phosphate buffered saline (pH 7.4) three times and then incubated in phosphate buffered saline (PBS) at 37° C. for 1 hr with the peptides at concentrations of 3-300 μg/mL. Triton-X100 was used as the positive control while the vehicle (PBS) was used as the negative control. Amphotericin B and melittin, both known to be hemolytic were used as reference compounds. Following incubation, the mixture was centrifuged at room temperature, and the supernatant was separated and analyzed for light absorbance at a single wavelength of 410 nm. The background absorbance reading from the negative control was subtracted from all samples. The Triton-X-100 sample was used to represent 100% lysis. All test compound and positive control samples were normalized to this value to determine the percent lysis caused by the test compounds and the positive controls at each concentration. EC50 value (the concentration of test article that produced a 50% lysis) was determined where possible for each test compound.

On to `CC[C@H](C)[C@H](NC(=O)CN)C(=O)NCC(=O)N[C@@H](C)C(=O)N[C@H](C(=O)N[C@@H](CC(C)C)C(=O)N[C@@H](CCCCN)C(=O)N[C@H](C(=O)N[C@@H](CC(C)C)C(=O)N[C@H](C(=O)N[C@H](C(=O)NCC(=O)N[C@@H](CC(C)C)C(=O)N1CCC[C@H]1C(=O)N[C@@H](C)C(=O)N[C@@H](CC(C)C)C(=O)N[C@H](C(=O)N[C@@H](CO)C(=O)N[C@@H](Cc1c[nH]c2ccccc12)C(=O)N[C@H](C(=O)N[C@@H](CCCCN)C(=O)N[C@@H](CCCNC(=N)N)C(=O)N[C@@H](CCCCN)C(=O)N[C@@H](CCCNC(=N)N)C(=O)N[C@@H](CCC(N)=O)C(=O)N[C@@H](CCC(N)=O)C(N)=O)[C@@H](C)CC)[C@@H](C)CC)[C@@H](C)O)[C@@H](C)O)C(C)C)C(C)C` [Melittin], for which the EC50 was 2.01 to 3.07 µg/mL (≈ 0.706 to 1.08 µM) in data set [1] (EC50 cytotoxicity in HepG2, positive controls across studies, range across studies) and 2.01 µg/mL (≈ 0.708 µM) in data set [1] (EC50 cytotoxicity in HepG2 cells (50% cell viability), Table 9, 18-22 hrs exposure without FBS). For the same compound, in the data set with human red blood cells, the “EC50 hemolysis (50% lysis)” value is 2.63 µg/mL (≈ 0.924 µM).

For orientation: EC50 means the midpoint of the concentration-response curve. Low values mean a more potent agent, high ones a less potent agent.
